Chains of the proteins cited; added tags and fusions are not shown. Residues count along the entry.
UniProt Q9Y5Z0, 63-518: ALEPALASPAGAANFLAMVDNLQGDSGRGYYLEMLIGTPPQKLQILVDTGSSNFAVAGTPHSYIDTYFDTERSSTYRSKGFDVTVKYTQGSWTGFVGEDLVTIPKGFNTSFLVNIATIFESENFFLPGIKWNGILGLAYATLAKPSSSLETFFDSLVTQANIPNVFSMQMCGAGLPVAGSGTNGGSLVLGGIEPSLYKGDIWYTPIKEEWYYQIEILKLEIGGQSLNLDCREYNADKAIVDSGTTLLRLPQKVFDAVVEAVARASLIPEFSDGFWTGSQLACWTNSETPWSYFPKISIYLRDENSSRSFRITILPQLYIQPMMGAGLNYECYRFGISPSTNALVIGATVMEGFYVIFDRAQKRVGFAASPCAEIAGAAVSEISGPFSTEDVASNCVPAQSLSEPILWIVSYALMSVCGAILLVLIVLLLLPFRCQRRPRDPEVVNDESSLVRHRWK

According to patent publication US9751886B2, “4-amino-6-phenyl-6,7-dihydro[1,2,3]triazolo[1,5-A]pyrazine derivatives as inhibitors of beta-secretase (BACE)” (Janssen Pharmaceutica NV, priority 2013, dated 2017):

Molecular target: recombinant BACE2 protein (Homo sapiens (Human), UniProt Q9Y5Z0)
Assay: BACE2 Biochemical FRET based assay
Settings: 0.4 μg/ml BACE2, 10 μM substrate, 450 min, pH 5.0
Description: This assay is a Fluorescence Resonance Energy Transfer Assay (FRET) based assay. The substrate for this assay contains the ‘Swedish’ Lys-Met/Asn-Leu mutation of the amyloid precursor protein (APP) beta-secretase cleavage site. This substrate also contains two fluorophores: (7-methoxycoumarin-4-yl) acetic acid (Mca) is a fluorescent donor with excitation wavelength at 320 nm and emission at 405 nm and 2,4-Dinitrophenyl (Dnp) is a proprietary quencher acceptor. […] Upon cleavage by the beta-secretase, the fluorophore Mca is separated from the quenching group Dnp, restoring the full fluorescence yield of the donor. The increase in fluorescence is linearly related to the rate of proteolysis.
Briefly in a 384-well format recombinant BACE2 protein in a final concentration of 0.4 μg/ml is incubated for 450 minutes at room temperature with 10 μM substrate in incubation buffer (50 mM Citrate buffer pH 5.0, 0.05% PEG, no DMSO) in the absence or presence of compound. Next the amount of proteolysis is directly measured by fluorescence measurement at T=0 and T=450 (excitation at 320 nm and emission at 405 nm). Results are expressed in RFU (Relative Fluorescence Units), as difference between T450 and TO.

BACE2 Biochemical FRET based assay pIC50: 8.52
Structure (SMILES): C[C@@]1(c2cc(NC(=O)c3ccc(F)cn3)cc(F)c2F)Cn2nncc2C(N)=N1 [Compound 8, N-{3-[(6R)-4-Amino-6-methyl-6,7-dihydro[1,2,3]triazolo[1,5-a]pyrazin-6-yl]-4,5-difluorophenyl}-5-fluoropyridine-2-carboxamide]
